Measurements reported in patent US8852881B2, “Multiwell assay apparatus and method for determining biological activity of compounds” (Vertex Pharmaceuticals, Inc., priority 2004, dated 2014).

The chains behind the UniProt entries cited, without tags or fusion partners. Where a name states a change or a piece, a line headed by the entry shows the natural chain unless it says otherwise. A line that says so, or that is headed by a name, gives the form on record, which may keep a tag or linker.
UniProt P13569, with tags, fused parts or gaps DEL508-508: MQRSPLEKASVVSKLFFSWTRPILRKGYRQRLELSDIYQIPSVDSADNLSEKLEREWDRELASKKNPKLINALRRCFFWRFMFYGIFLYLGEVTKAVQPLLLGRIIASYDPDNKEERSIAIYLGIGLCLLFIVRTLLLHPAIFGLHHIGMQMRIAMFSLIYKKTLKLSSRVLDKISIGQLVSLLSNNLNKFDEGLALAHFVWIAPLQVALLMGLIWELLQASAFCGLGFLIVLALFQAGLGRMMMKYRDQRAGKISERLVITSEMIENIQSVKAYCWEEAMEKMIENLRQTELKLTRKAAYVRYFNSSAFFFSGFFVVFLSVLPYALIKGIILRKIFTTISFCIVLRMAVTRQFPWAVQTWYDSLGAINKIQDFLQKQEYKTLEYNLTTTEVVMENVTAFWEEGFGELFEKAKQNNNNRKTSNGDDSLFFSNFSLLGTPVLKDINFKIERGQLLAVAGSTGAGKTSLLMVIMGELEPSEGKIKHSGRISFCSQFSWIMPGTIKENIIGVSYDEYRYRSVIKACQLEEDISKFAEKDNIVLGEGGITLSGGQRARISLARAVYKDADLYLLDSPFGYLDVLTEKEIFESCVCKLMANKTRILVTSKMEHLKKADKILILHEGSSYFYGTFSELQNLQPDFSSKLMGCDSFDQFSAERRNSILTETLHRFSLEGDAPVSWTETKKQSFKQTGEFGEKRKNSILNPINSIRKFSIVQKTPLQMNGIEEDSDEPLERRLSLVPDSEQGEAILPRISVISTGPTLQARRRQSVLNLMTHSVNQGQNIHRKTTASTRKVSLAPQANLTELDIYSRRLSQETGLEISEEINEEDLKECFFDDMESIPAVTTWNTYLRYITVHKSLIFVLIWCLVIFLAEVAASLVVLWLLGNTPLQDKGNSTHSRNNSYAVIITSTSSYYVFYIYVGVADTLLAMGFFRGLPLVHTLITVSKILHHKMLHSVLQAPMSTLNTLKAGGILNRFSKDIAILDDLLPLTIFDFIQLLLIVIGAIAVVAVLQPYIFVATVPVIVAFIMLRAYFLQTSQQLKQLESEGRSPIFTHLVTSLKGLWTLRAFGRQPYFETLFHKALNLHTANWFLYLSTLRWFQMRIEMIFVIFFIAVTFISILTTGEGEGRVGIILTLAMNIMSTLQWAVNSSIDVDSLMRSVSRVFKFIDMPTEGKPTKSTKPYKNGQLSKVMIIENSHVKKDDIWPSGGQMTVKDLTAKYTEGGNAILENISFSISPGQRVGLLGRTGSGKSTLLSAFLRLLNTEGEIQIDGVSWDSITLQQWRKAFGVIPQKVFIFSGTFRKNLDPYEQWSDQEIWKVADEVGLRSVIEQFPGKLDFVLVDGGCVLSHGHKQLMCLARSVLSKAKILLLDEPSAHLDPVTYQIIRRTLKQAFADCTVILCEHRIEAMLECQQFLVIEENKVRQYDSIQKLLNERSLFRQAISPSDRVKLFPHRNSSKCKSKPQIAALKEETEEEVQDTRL

Target: T1, ΔF508-CFTR (Homo sapiens, UniProt P13569, DEL508-508)
T1 construct: expressed in transfected cells; host or cells: Fischer Rat Thyroid (FRT) epithelial cell line
Test: Ussing chamber array transepithelial current (voltage clamp) in FRT cells expressing ΔF508-CFTR
Format: cell-based
Conditions: FRT cells carrying ΔF508-CFTR incubated 48 hours at 27° C.; 20 μM forskolin in all wells; clamp 60 mV; n=4; read-out: EC-50 response (increase in current as a function of added genistein)

**Q.** Which EC50 does the source give for `O=c1c(-c2ccc(O)cc2)coc2cc(O)cc(O)c12` [genistein] here?
**A.** 18.1 ± 0.8 µM
